Yeast mating assay B: variants of the scFv Ab-14

Target: peptide PDVDLGDISGINAS, taken from heptad repeat 2 (HR2) of SARS-CoV-2 spike.

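Phage display of a naive human antibody library on the peptide gave the parent. The variants were designed computationally from a first round of random CDR variants and then made and measured. Their group label is 14L_GP_Gen (GP: Gaussian process model; Gen: genetic algorithm; a sequence that several methods proposed may carry one label only). Affinity was read by AlphaSeq, a pooled yeast mating assay with surface-displayed partners. Binding brings cells together so that they mate, and sequencing counts the barcode pairs among the diploids. Each replicate has its own calibration line, from reference interactions of the BCL2 family. There are six technical replicates.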

Ab-14 is the parent antibody, in scFv form: VH, then the linker GGGGSGGGGSGGGGS, then VL. The heavy chain is unchanged in all variants.
VH: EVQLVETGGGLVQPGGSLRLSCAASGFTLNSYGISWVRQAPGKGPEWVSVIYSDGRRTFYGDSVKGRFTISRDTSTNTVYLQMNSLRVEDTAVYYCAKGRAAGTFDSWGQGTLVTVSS
VL: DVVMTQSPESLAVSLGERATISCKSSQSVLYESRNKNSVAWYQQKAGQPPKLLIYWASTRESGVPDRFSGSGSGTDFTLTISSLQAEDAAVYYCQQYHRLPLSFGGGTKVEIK

Positions count from residue 1 of the parent VL; S25V puts V in place of S. The read-out is the apparent dissociation constant on a log10 scale (nM): the lower, the stronger. Replicates are averaged; those with no signal do not enter the mean.

changes	log10 Kd, replicates	mean, log10 nM	empty controls
S25V L30G W56E	0.14 / 0.20 / 0.01 / -0.09 / -0.13 / 0.43	0.09	0 of 18
S25L S26P V29D W56S T59Q	-0.13 / -0.10 / 0.16 / -0.49 / -0.10 / -0.10	-0.13	0 of 18
S25L V29E S38N W56N E61M	-0.32 / -0.42 / -0.68 / -0.53 / -0.65 / -0.48	-0.52	0 of 18
S25L W56H S58N	0.26 / 0.27 / 0.12 / 0.06 / 0.20 / 0.29	0.20	0 of 18
S25L V29E L30D W56N E61L	0.24 / 0.22 / -0.05 / -0.15 / -0.01 / -0.03	0.04	1 of 18 (2.52)
S25L S26Q V29Y W56N T59Y	-0.09 / -0.33 / -0.14 / -0.32 / -0.07 / -0.11	-0.18	2 of 18 (1.98)
S25L L30E W56Q	0.23 / 0.03 / -0.04 / -0.07 / 0.15 / 0.22	0.09	1 of 18 (2.71)
S25L S26P V29D W56N	-0.18 / -0.19 / -0.50 / -0.28 / -0.11 / -0.13	-0.23	3 of 18 (3.43)
S25L S26Q V29G W56N E61L	-0.01 / -0.04 / -0.02 / -0.39 / 0.11 / 0.04	-0.05	1 of 18 (3.10)
S25I V29Q W56N T59Q	-0.29 / -0.34 / -0.18 / -0.70 / -0.36 / -0.21	-0.35	1 of 18 (0.66)
S25L V29Q W56N T59Q E61C	-0.17 / 0.02 / -0.36 / -0.26 / -0.16 / -0.07	-0.17	0 of 18
S25L V29E W56E S62D	0.08 / -0.07 / -0.03 / -0.14 / -0.07 / 0.25	0.00	0 of 18
S25L V29W L30E W56N T59Q E61L	0.38 / 0.49 / 0.29 / 0.29 / 0.33 / 0.56	0.39	2 of 18 (3.62)
S25V W56E S103K	-0.19 / -0.11 / -0.45 / -0.51 / -0.78 / -0.37	-0.40	0 of 18
S25L S26Q V29S W56N E61L	0.50 / 0.04 / 0.13 / 0.16 / 0.13 / 0.15	0.18	1 of 18 (2.25)
S25L V29M W56N Q96A	0.25 / 0.18 / 0.33 / 0.08 / 0.40 / 0.42	0.28	1 of 18 (2.59)
S25L S26L V29E W56N T59Q	0.15 / 0.03 / 0.01 / -0.05 / 0.00 / 0.19	0.05	0 of 18
S25L W56Q S62Q	-0.27 / -0.26 / -0.11 / -0.46 / -0.31 / -0.10	-0.25	0 of 18
S25V S26E V29Y W56N	-0.01 / -0.59 / -0.42 / -0.55 / -0.80 / -0.18	-0.43	0 of 18
S25L V29G W56H Q96D	-0.05 / -0.29 / -0.42 / -0.52 / -0.21 / 0.20	-0.22	1 of 18 (1.57)
S25L S26Q V29T W56D E61L	0.10 / -0.36 / 0.10 / -0.01 / 0.01 / -0.03	-0.03	0 of 18
S25I W56D E61C	0.07 / -0.15 / -0.35 / -0.44 / -0.36 / -0.12	-0.23	0 of 18
S25M V29E W56E T59Q	0.15 / -0.09 / -0.28 / -0.10 / -0.20 / -0.07	-0.10	0 of 18
S25L E32Q S38N W56E	0.05 / 0.13 / -0.21 / 0.00 / -0.14 / -0.03	-0.03	2 of 18 (2.35)
S25F S26Y W56N T59Q	-0.17 / -0.09 / -0.20 / -0.07 / -0.28 / 0.18	-0.11	1 of 18 (2.08)
S25V S33N W56D	-0.01 / -0.10 / -0.38 / -0.14 / -0.12 / -0.26	-0.17	1 of 18 (2.88)
K24H S25L V29W W56N T59Q	-0.14 / -0.30 / -0.51 / -0.42 / -0.49 / -0.16	-0.34	0 of 18
S25L S26Y V29H S38A W56N	0.64 / 0.38 / 0.54 / 0.33 / 0.31 / 0.39	0.43	3 of 18 (3.48)
S25L S26P V29H W56N T59Q	0.05 / -0.04 / -0.06 / -0.49 / -0.43 / 0.11	-0.14	1 of 18 (3.27)
S25V V29Y S38N W56N	-0.32 / -0.39 / -0.46 / -0.54 / -0.49 / -0.28	-0.41	2 of 18 (2.47)
S25L N35M W56N S62K	-0.10 / -0.27 / -0.33 / -0.53 / -0.39 / -0.14	-0.29	0 of 18
S25L V29W S38N W56A	-0.23 / -0.27 / -0.35 / -0.41 / -0.42 / -0.22	-0.32	2 of 18 (2.82)
S25L W56H S62V	0.12 / -0.02 / 0.09 / -0.01 / 0.05 / 0.16	0.07	3 of 18 (2.80)
S25L Q27E V29D W56E	0.12 / 0.18 / 0.01 / -0.09 / -0.03 / 0.12	0.05	2 of 18 (3.01)
S25L V29G W56N T59Q	1.14 / 0.72 / 0.43 / 0.56 / 0.64 / 0.77	0.71	1 of 18 (2.44)
S25L Q27M S38N W56G	-0.64 / -0.59 / -0.65 / -0.85 / -0.82 / -0.60	-0.69	1 of 18 (1.91)
S25L V29M N35M W56N T59Q E61L	0.24 / -0.03 / 0.05 / -0.13 / 0.10 / 0.21	0.07	1 of 18 (2.13)

For reference, 5 entries of the list once more:

changes	log10 Kd, replicates	mean, log10 nM	empty controls
S25F S26Y W56N T59Q	-0.17 / -0.09 / -0.20 / -0.07 / -0.28 / 0.18	-0.11	1 of 18 (2.08)
S25L V29W L30E W56N T59Q E61L	0.38 / 0.49 / 0.29 / 0.29 / 0.33 / 0.56	0.39	2 of 18 (3.62)
S25L S26L V29E W56N T59Q	0.15 / 0.03 / 0.01 / -0.05 / 0.00 / 0.19	0.05	0 of 18
S25I V29Q W56N T59Q	-0.29 / -0.34 / -0.18 / -0.70 / -0.36 / -0.21	-0.35	1 of 18 (0.66)
S25L S26Q V29Y W56N T59Y	-0.09 / -0.33 / -0.14 / -0.32 / -0.07 / -0.11	-0.18	2 of 18 (1.98)

The authors' rule: three or more of the six replicates give a measured affinity, fewer mean a poor binder. A sequence measured in both rounds can read differently, since the two assays cover different ranges. Of ten entries with the parent sequence, four were seen in most replicates (averages 0.34 to 2.37), three in one and three in none, so single entries are noisy. Three control strains display no target. For all light chain designs, 4% of the pairings with them gave a signal, with a median of 2.64 and one signal in twenty below 1.59, so weak values seen in few replicates may be background. For each scFv, signals with the empty controls are counted beside the result, with their mean in brackets.

Source: Li et al. 2023 (doi:10.1038/s41467-023-39022-2), MIT Lincoln Laboratory and A-Alpha Bio; data file from the FLAb repository.